This test has as its target T1, Prostate specific antigen (PSA), purified from human seminal fluid (human, UniProt P07288).
T1 construct: mature; Mostly captured on wells by MAb 5E4 (IFMA) or on the chip by MAb H117 (SPR); in solution in enzyme assays; also called free PSA; active PSA
Nature of the test: GST-peptide IFMA, PSA captured by MAb 5E4. As for the experimental part:
The binding of individual phage clones to PSA was tested by IFMA (phage IFMA). In the phage IFMA, about 30 ng of PSA was added to MAb 5E4 coated wells for 1 h. After washing (Buffer: 150 mM NaCl, 7.7 mM NaN₃, 0.2 g/L Tween 20), 15 mL of phage and 200 μl assay buffer was added. After incubation for 1 h, the wells were washed and filled with 200 μl of assay buffer containing 50 ng europium-labeled anti phage monoclonal antibody recognizing the M13 coat protein of the phage. After incubation for 60 min, the wells were washed 4 times, and enhancement solution (EG&G-Wallac) was added. The fluorescence was quantified with a 1234 DELFIA Research fluorometer (EG&G-Wallac).
Binding of GST-peptide to PSA was determined by an IFMA (GST-peptide IFMA) similar to the one for phage peptides except that Eu³⁺-labeled antibody to GST was used. Various amounts of GST-peptide or wild type GST were added to wells containing captured PSA in 200 μL of assay buffer and incubated for 1 h. To test the effect of Zn²⁺ on the binding between GST-peptide and PSA, various concentrations of Zn²⁺ (1-200 μM) were added to the buffer in the incubation step of GST-peptide and PSA. […] After further incubation and washing the bound fluorescence was measured as described above. […] After capturing the various proteinases or PSA complexes, GST-peptide was added and binding was monitored as described above for the GST-peptide IFMA.

Amino acid sequences for entries named in this document (tags omitted). Residues count along the entry.
UniProt P07288, 25-261: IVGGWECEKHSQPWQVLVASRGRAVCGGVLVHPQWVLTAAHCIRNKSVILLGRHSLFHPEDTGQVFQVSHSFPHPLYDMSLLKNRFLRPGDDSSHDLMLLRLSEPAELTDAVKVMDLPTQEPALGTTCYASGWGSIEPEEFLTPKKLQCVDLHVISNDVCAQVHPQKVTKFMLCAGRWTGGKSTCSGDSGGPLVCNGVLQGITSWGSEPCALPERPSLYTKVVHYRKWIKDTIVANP

B1: Wild type GST (other, UniProt P08515 1-218, looked up)
chain: MSPILGYWKIKGLVQPTRLLLEYLEEKYEEHLYERDEGDKWRNKKFELGLEFPNLPYYIDGDVKLTQSMAIIRYIADKHNMLGGCPKERAEISMLEGAVLDIRYGVSRIAYSKDFETLKVDFLSKLPEMLKMFEDRLCHKTYLNGDHVTHPDFMLYDALDVVLYMDPMCLDAFPKLVCFKKRIEAIPQIDKYLKSSKYIAWPLQGWQATFGGGDHPPK
notes: Control; also called wild type glutathione S-transferase
Consider B1, for which the binding result is recorded as “no binding”.

The values above are taken from patent US20040106557A1 (LICENTIA, published 2004).
